Test results published in ChEMBL document CHEMBL1275262, “Stereoselective phosphorylation of cyclopropavir by pUL97 and competitive inhibition by maribavir” (Antimicrob Agents Chemother, 2010).

Tests used:
[1] = substrate: Nc1nc2c(ncn2/C=C2/CC2(CO)CO)c(=O)[nH]1; conditions: Human betaherpesvirus 5; pUL97
[2] = substrate: Nc1nc2c(ncn2/C=C2/CC2(CO)CO)c(=O)[nH]1; conditions: Human betaherpesvirus 5; pUL97; remark: listed apart in the source

B1: Serine/threonine protein kinase UL97 (Human herpesvirus 5), P16788 (protein)
chain: MSSALRSRARSASLGTTTQGWDPPPLRRPSRARRRQWMREAAQAAAQAAVQAAQAAAAQVAQAHVDENEVVDLMADEAGGGVTTLTTLSSVSTTTVLGHATFSACVRSDVMRDGEKEDAASDKENLRRPVVPSTSSRGSAASGDGYHGLRCRETSAMWSFEYDRDGDVTSVRRALFTGGSDPSDSVSGVRGGRKRPLRPPLVSLARTPLCRRRVGGVDAVLEENDVELRAESQDSAVASGPGRIPQPLSGSSGEESATAVEADSTSHDDVHCTCSNDQIITTSIRGLTCDPRMFLRLTHPELCELSISYLLVYVPKEDDFCHKICYAVDMSDESYRLGQGSFGEVWPLDRYRVVKVARKHSETVLTVWMSGLIRTRAAGEQQQPPSLVGTGVHRGLLTATGCCLLHNVTVHRRFHTDMFHHDQWKLACIDSYRRAFCTLADAIKFLNHQCRVCHFDITPMNVLIDVNPHNPSEIVRAALCDYSLSEPYPDYNERCVAVFQETGTARRIPNCSHRLRECYHPAFRPMPLQKLLICDPHARFPVAGLRRYCMSELSALGNVLGFCLMRLLDRRGLDEVRMGTEALLFKHAGAACRALENGKLTHCSDACLLILAAQMSYGACLLGEHGAALVSHTLRFVEAKMSSCRVRAFRRFYHECSQTMLHEYVRKNVERLLATSDGLYLYNAFRRTTSIICEEDLDGDCRQLFPE
[1]
  kcat/Km: 0.69 M⁻¹ s⁻¹
[2]
  Km: 1750 µM
  kcat: 0.0012 s⁻¹
